Structures can show the parent of a compound that is named as a salt.
Columns and labels:
[1] = system: rabbit eyes with high intraocular pressure induced by magnetic beads; test: Model of magnetic bead induced high intraocular pressure rabbit (intraocular pressure >30 mmHg); format: in vivo, New Zealand white rabbit
Excerpt: Evaluation of the effect of reducing intraocular pressure in model of magnetic bead induced high intraocular pressure rabbit (high intraocular pressure model with intraocular pressure >30 mmHg)
Experimental animal: New Zealand white rabbit, male, body weight 2.0-3.0 kg. New Zealand white rabbits were purchased from Huijun Farm (Changhua, Taiwan) before the experiment and were raised in the Animal Center of National Chiao Tung University.
Experimental method: After weighing and grouping male New Zealand white rabbits, the New Zealand white rabbits were anesthetized with Zoletil 50 0.2 mL/kg. 50 μL of magnetic bead solution (50 mg/mL, magnetic bead size of 10 μm) was injected into the left and right anterior eye chambers of the rabbit under anesthesia to make rabbit eyes become a state of high intraocular pressure. After the injection to the anterior chamber of the eye, a strong […] iron magnet ring was immediately put around the eye for 10-20 minutes to make the magnetic beads completely block the drainage tissue of the aqueous humor. After disinfecting the eyeball with antibiotics, moisturizing eye ointment was provided to restore the eyeball, and the intraocular pressure rising was waited. […] The experiment was conducted for 2 consecutive days.

[2] = system: rabbit eyes; test: Safety margin assay (eye irritation, OECD/OCDE 405); conditions: in vivo

Structure (SMILES) | effectiveness relative to eye drops containing 0.02% AR-13324 ([1]; eye drop containing 1% Compound 7) | Safety margin: Therapeutic index (TI) [2] | effectiveness relative to eye drops containing 0.02% AR-13324 ([1]; eye drop containing 0.1% Compound 20)
NCC(C(=O)Nc1ccc(-c2cn[nH]c2)cc1)c1ccccc1 (racemic) [Compound 7, N-(4-(1H-pyrazol-4-yl)phenyl)-3-amino-2-phenylpropanamide dihydrochloride] | more than 3 times | 3 | –
NC[C@@H](C(=O)Nc1ccc(-c2cn[nH]c2)cc1)c1ccccc1 [Compound 20, (S)—N-(4-(1H-pyrazol-4-yl)phenyl)-3-amino-2-phenylpropanamide dihydrochloride] | – | – | more than twice as effective

From US11608319B2, “Beta-amino acid derivative, kinase inhibitor and pharmaceutical composition containing the same, and method for performing an in vivo related application that benefits from the inhibition of a kinase” (Industrial Technology Research Institute, priority 2019, dated 2023)
